From publication PMC8534029 (Cells, 2021)

By UniProt entry, the sequences of proteins in these tests, tags left out. Where a name states a change or a piece, a line headed by the entry shows the natural chain unless it says otherwise.
UniProt P41145: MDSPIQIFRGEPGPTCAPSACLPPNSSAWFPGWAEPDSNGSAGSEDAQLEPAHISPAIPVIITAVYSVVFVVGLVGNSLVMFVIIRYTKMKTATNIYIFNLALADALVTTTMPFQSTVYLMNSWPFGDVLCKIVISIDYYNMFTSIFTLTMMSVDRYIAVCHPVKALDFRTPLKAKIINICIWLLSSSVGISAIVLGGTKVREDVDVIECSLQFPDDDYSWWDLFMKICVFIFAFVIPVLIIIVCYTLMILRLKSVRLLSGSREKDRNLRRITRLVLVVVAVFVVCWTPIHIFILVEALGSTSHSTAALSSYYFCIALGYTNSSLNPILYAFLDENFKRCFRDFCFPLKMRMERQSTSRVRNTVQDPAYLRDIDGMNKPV

Target: human KOR (CHO cell membranes) (Homo sapiens, UniProt P41145)
Assay: [3H]diprenorphine competition on membranes
Conditions: 1.0 nM [3H]diprenorphine, 50 mM Tris-HCl, 5 mM MgCl2, 1 mM EGTA, pH 7.4, 25 °C; no OT; orthosteric

Substance: diprenorphine
- LogIC50 (M) / Agonist: −8.52 ± 0.06 log M
- LogKi (M) / Agonist: −8.86 ± 0.06 log M
